Experimental data reported in BindingDB's records for 2547074.

Amino acid sequences for entries named in this document (tags omitted).
UniProt Q99720, whole entry: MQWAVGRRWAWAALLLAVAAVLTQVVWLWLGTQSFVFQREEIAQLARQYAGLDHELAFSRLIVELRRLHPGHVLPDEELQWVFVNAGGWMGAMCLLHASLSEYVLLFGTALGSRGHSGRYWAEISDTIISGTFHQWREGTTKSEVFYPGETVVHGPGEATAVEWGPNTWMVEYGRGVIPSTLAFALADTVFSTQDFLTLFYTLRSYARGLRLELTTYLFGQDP

What was measured:
[1] = biological target: T1, Sigma non-opioid intracellular receptor 1 (Homo sapiens, UniProt Q99720); assay: Compound was evaluated for binding affinity towards sigma opioid receptor using [3H]DTG in guinea pig ileum
[2] = biological target: T1, Sigma non-opioid intracellular receptor 1; assay: Compound was evaluated for binding affinity towards sigma opioid receptor using [3H](+)-3-PPP in guinea pig ileum

CN(C(=O)Cc1ccc(Cl)c(Cl)c1)[C@@H]1CCCC[C@@H]1N1CCCC1
Ki [1]: 118 nM
Ki [2]: 221 nM
